# Literature values as cited in PMC4474859, “Structure of Importin-α from a Filamentous Fungus in Complex with a Classical Nuclear Localization Signal” (PLoS ONE, 2015).
# Target: MmImpα
# Settings: minor site of MmImpα; ITC; read-out: Kd, hPLSCR4 NLS peptide, MmImpα
# Source text: Affinity assays between NLS peptides and Impα proteins have been performed based in indirect affinity measurements, using Surface Plasmon Resonance (SPR), and ITC [19, 38, 55]. Indirect affinity measurements between NLSs and Impα proteins reported dissociation constants in the nM range and permitted the comparison among these molecules. SPR experiments was only able to estimate the peptide-protein affinity in the μM range which was lately confirmed by ITC experiments. The comparison between ITC analysis of MmImpα/SV40NLS [19] and NcImpα/SV40NLS is consist ...
sequence,measurement,value
GSIIRKWN [hPLSCR4 NLS peptide],Kd,48.7 ± 6.5 µM
